Laboratory results published in patent publication US10961241B2, “Chemical compounds” (AstraZeneca AB, priority 2016, dated 2021).

Chains of the proteins cited; added tags and fusions are not shown.
UniProt P03372, whole entry: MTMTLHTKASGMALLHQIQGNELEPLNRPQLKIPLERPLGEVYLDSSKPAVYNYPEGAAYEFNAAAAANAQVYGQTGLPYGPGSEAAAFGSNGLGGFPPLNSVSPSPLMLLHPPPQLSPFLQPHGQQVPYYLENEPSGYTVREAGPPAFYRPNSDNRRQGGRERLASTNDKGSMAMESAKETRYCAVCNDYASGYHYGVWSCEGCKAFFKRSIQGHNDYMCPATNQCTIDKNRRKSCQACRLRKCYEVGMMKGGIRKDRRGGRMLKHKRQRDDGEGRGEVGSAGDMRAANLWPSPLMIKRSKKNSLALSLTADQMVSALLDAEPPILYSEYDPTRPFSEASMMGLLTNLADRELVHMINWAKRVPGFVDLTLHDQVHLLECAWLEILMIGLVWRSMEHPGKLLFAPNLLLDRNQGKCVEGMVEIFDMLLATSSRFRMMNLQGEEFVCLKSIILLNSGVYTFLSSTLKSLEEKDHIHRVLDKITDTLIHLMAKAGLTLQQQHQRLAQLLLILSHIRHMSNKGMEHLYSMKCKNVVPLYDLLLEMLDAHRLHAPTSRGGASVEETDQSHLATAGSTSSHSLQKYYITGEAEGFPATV

Biological target: ERα receptor in MCF-7 cells (Homo sapiens (Human), UniProt P03372)
Assay: MCF-7 ER down-regulation assay (immuno-fluorescence)
Assay type: cell-based
Settings: shown in parentheses
Experimental: The Echo uses acoustic technology to perform direct microplate-to-microplate transfers of DMSO compound solutions to assay plates. […] Cells were fixed at room temperature for 20 mins before being washed two times with 250 μL PBS/Proclin (PBS with a Biocide preservative) using a BioTek platewasher, 40 μL of PBS/Proclin was then added to all wells and the plates stored at 4° C. The fixing method described above was carried out on the Integrated Echo 2 workcell. Immunostaining was performed using an automated AutoElisa workcell. […] The plates were incubated overnight at 4° C. […] The mean total intensity was normalized for cell number giving the total intensity per cell. The data was exported into a suitable software package (such as Origin) to perform curve fitting analysis.

COC[C@](C)(F)CN1[C@H](c2ccc(OC3CN(CCCF)C3)cc2OC)c2ccc3[nH]ncc3c2C[C@H]1C (single isomer, unassigned) [Example 12]
% downregulation in the ER down-regulation assay: 83%
